This series in a line: soluble on expression in E. coli; label from the status in PepcDB or PDB records.

From the DeepSol protein solubility set come the findings set out here.

For the sequence “MEAGRPRPVLRSVNSREPSQVIFCNRSPRVVLPVWLNFDGEPQPYPTLPPGTGRRIHSYRGHLWLFRDAGTHDGLLVNQTELFVPSLNVDGQPIFANITLPVYTLKERCLQVVRSLVKPENYRRLDIVRSLYEDLEDHPNVQKDLERLTQERIAHQRMGD”, the “soluble on expression in E. coli” value was “soluble”.
On to “VDPTHFEKRFLKRIRDLGEGHFGKVELCRYDPEGDNTGEQVAVKSLKPESGGNHIADLKKEIEILRNLYHENIVKYKGICTEDGGNGIKLIMEFLPSGSLKEYLPKNKNKINLKQQLKYAVQICKGMDYLGSRQYVHRDLAARNVLVESEHQVKIGDFGLTKAIETDKEYYTVKDDRDSPVFWYAPECLMQSKFYIASDVWSFGVTLHELLTYCDSDSSPMALFLKMIGPTHGQMTVTRLVNTLKEGKRLPCPPNCPDEVYQLMRKCWEFQPSNRTSFQNLIEGFEALLK”, for which the “soluble on expression in E. coli” value is “soluble”.
